According to ChEMBL document CHEMBL6127110, “Pyrazolo-Pyrimidinones with Improved Solubility and Selective Inhibition of Adenylyl Cyclase Type 1 Activity for Treatment of Inflammatory Pain” (J Med Chem, 2024):

Columns and labels:
[1] = Apparent permeability of compound across apical to basolateral side in MDCK-II cells by fluorescence based HPLC analysis; assay type: ADME, cell-based, Canis lupus familiaris; details: dog
[2] = Ratio of drug concentration in Sprague-Dawley rat brain to plasma at 10 mg/kg, ip measured after 1 hrs by LC-MS/MS analysis; assay type: ADME, organism-based
[3] = Ratio of drug concentration in Sprague-Dawley rat brain to plasma at 10 mg/kg, ip measured after 0.5 hrs by LC-MS/MS analysis; assay type: ADME, organism-based
[4] = Ratio of drug concentration in Sprague-Dawley rat brain to plasma at 10 mg/kg, ip measured after […] by LC-MS/MS analysis; assay type: ADME, organism-based; details: time 0.17 hrs
[5] = AUC (0 to 24 hrs) in Sprague-Dawley rat at 10 mg/kg, ip measured after 24 hrs by LC-MS/MS analysis; assay type: ADME, organism-based; details: in vivo
[6] = Ratio of drug concentration in Sprague-Dawley rat brain to plasma at 10 mg/kg, ip measured after 2 hrs by LC-MS/MS analysis; assay type: ADME, organism-based
[7] = Tmax in Sprague-Dawley rat at 10 mg/kg, ip measured after 24 hrs by LC-MS/MS analysis; assay type: ADME, organism-based; details: in vivo
[8] = Cmax in Sprague-Dawley rat at 10 mg/kg, ip measured after 24 hrs by LC-MS/MS analysis; assay type: ADME, organism-based; details: in vivo
[9] = Apparent volume of distribution during terminal phase in Sprague-Dawley rat at 10 mg/kg, ip measured after 24 hrs by LC-MS/MS analysis; assay type: ADME, organism-based; details: in vivo

SMILES | Papp [1] | BPR [2] | BPR [3] | BPR [4] | AUC [5] | BPR [6] | Tmax [7] | Cmax [8] | Vz/F [9]
CCc1cc(=O)[nH]c(-n2nc(C)cc2N[C@H](C)C2CCCC2)n1 | 7.9 10^-6 cm/s |  |  |  |  |  |  |  | 
CCc1cc(=O)[nH]c(-n2nc(C)cc2N[C@@H](C)c2ccccc2)n1 |  | 10% | 14% | 15% | 4611 ng·h/mL | 13% | 10.2 min | 9993 ng/mL | 12 L/kg
CCc1cc(=O)[nH]c(-n2nc(C)cc2N[C@H](C)c2cccc(C(F)(F)F)c2)n1 | 7.2 10^-6 cm/s |  |  |  |  |  |  |  | 
